In PubChem BioAssay AID540308 (The Scripps Research Institute Molecular Screening Center, 2011) one finds activation data, which are given here for 94 molecules.

Sequences of proteins named here, by UniProt entry; tags and fusion partners are left off.
UniProt P32245, whole entry: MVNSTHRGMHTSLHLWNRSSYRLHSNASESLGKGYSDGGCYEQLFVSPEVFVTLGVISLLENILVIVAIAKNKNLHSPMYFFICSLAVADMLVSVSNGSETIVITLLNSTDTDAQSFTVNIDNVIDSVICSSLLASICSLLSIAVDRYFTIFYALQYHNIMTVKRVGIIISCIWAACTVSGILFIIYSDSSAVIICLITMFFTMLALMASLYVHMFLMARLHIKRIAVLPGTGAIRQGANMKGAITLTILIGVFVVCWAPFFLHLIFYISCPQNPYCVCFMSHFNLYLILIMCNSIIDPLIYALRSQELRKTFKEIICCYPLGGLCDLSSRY

This is a selection; strong and weak results do not stand in their true shares. Some salts and complexes are drawn in separate pieces, as the source files them; their charges need not balance. Activity calls are given as the source filed them.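 Rule for the calls: active = activation above a per-plate cutoff, the mean activation of sample wells on that plate plus 3 SD (cut at about 8% in these data); inactive = the rest.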

In this test the target is Melanocortin receptor 4 (Homo sapiens) (UniProt P32245). Briefly: activators of MC4R beta-arrestin recruitment – cell-based, luminescence, agonist arm of biased-ligand search, primary screen (AID 540308). The conditions noted are these: U2OS MC4R beta-arrestin complementation, at 8.9 µM, active compounds read high, percent of melanotan II response, DMSO zero. (Activated receptors often draw arrestin, which recruitment assays turn into a signal.)
As for `COc1ccccc1OP(C)(=O)Nc1ccc(Br)cc1` (centres undefined), the activation is inactive: -0.34%.
With `COc1ccc(OP(C)(=O)Nc2ccccn2)cc1` (centres undefined) the figure was inactive: 0.79%; with `CN(C)CCOC(=O)C(O)(c1ccccc1)C1CCCC1` (centres undefined), inactive: -1.04%; with `O=[N+]([O-])c1cc([N+](=O)[O-])c(Nc2ccccn2)c([N+](=O)[O-])c1`, inactive: -4.25%.
With `Cc1c(NP(C)(=O)Oc2ccc(C(C)C)cc2)c(=O)n(-c2ccccc2)n1C` (centres undefined) the figure was inactive: -1.68%; with `COc1ccccc1OP(C)(=O)Nc1ccc(C)cc1C` (centres undefined), inactive: -1.25%.
With `CP(=O)(Nc1ccccn1)Oc1ccccc1` (centres undefined), the activation was inactive: 0.25%.
Turning to `CCc1ccc(OP(C)(=O)O)cc1`, the activation was inactive: -2.37%.
With `Cc1cc(C)cc(OP(C)(=O)Nc2cccc(C(F)(F)F)c2)c1` (centres undefined) the figure was inactive: 3.79%; with `O=C1C(O)=C([N+](=O)[O-])C(=O)C(O)=C1[N+](=O)[O-]`, inactive: -3.47%.
With `COc1ccccc1OP(C)(=O)Nc1ccc(C)c(C)c1` (centres undefined) the figure was inactive: -2.37%; with `COc1ccc(OP(C)(=O)Nc2ccccc2Br)cc1` (centres undefined), inactive: 0.03%; with `CP(=O)(OCCOc1ccccc1)OCCOc1ccccc1`, inactive: -1.43%.
With `CCCCCCCCCCCCCCCC1C[N+](C)(C)CCOP(C)(=O)O1` (centres undefined), the activation was inactive: -0.92%.
With `CP(=O)(Nc1ccc(Cl)cc1Cl)Oc1ccccc1` (centres undefined), the activation is inactive: 0.97%.
As for `CCOC(=O)c1ccc(NP(C)(=O)Oc2ccc(Cl)cc2)cc1` (centres undefined), the activation is inactive: -1.19%.
As to `CP(=O)(OC12CC3CC(CC(C3)C1)C2)OC12CC3CC(CC(C3)C1)C2`, the activation is inactive: 0.97%.
With `COc1ccc(OP(C)(=O)Nc2ccc(Br)cc2)cc1` (centres undefined) the figure was inactive: 1.15%; with `CCN(CC)CC(O)COC(=O)C(O)(c1ccccc1)C1CCCCC1` (centres undefined), inactive: -2.37%; with `O=C(OCCCN1CCCC1)C(O)(c1ccccc1)C1CCCCC1` (centres undefined), inactive: -1.36%.
With `COc1ccccc1OP(C)(=O)Nc1c(C)n(C)n(-c2ccccc2)c1=O` (centres undefined) the figure was inactive: -1.06%.
With `CCc1ccc(OP(C)(=O)Nc2cccnc2)cc1` (centres undefined) the figure was inactive: 0.13%; with `CP(=O)(Oc1ccccc1)N1CCOC1=O` (centres undefined), inactive: -1.3%; with `CC(C)(C)c1ccc(OP(C)(=O)O)cc1`, inactive: 0.52%.
Take `COc1ccccc1OP(C)(=O)Nc1ccccc1Br` (centres undefined): the activation was inactive: -0.54%.
With `CP(=O)(Nc1ccc(Cl)cc1)Oc1ccc(F)cc1` (centres undefined) the figure was inactive: -0.84%.
On to `CN(C)C(=O)c1c([N+](=O)[O-])cc([N+](=O)[O-])cc1[N+](=O)[O-]`, for which the activation was inactive: -1.13%.
With `CP(=O)(Nc1ccc(SC(F)(F)F)cc1)Oc1ccc(F)cc1` (centres undefined) the figure was inactive: 4.68%; with `CCOP(C)(=S)SCC(=O)NC(C)(CC)C(=O)O` (centres undefined), inactive: 0.38%.
With `CP(=O)(Nc1ccc2c(c1)OCCO2)Oc1ccccc1` (centres undefined) the figure was inactive: -0.54%.
With `Cc1ccccc1NP(C)(=O)Nc1ccccc1C` the figure was inactive: -1.5%; with `COc1ccc(OP(C)(=O)Nc2cccc(Br)c2)cc1` (centres undefined), inactive: 0.53%.
Take `CN(C)CCOC(=O)C(O)(c1ccccc1)C1CCCCC1` (centres undefined): the activation is inactive: -2.27%.
With `COc1ccc(NP(C)(=O)Oc2ccccc2OC)cc1` (centres undefined) the figure was inactive: -1.22%; with `O=[N+]([O-])c1ccc(OP2(=O)COCCO2)cc1` (centres undefined), inactive: -1.41%; with `Cc1cc(-c2cccc3ccccc23)c(C)cn1.O=[N+]([O-])c1cc([N+](=O)[O-])c(O)c([N+](=O)[O-])c1`, inactive: -3.47%.
With `O=[N+]([O-])c1cc([N+](=O)[O-])c(NCC2CCS(=O)(=O)C2)c([N+](=O)[O-])c1` (centres undefined) the figure was inactive: -4.9%; with `Cc1c(C(c2ccc3c(c2)OCO3)c2c(C)n(C)n(-c3ccccc3)c2=O)c(=O)n(-c2ccccc2)n1C.O=[N+]([O-])c1cc([N+](=O)[O-])c(O)c([N+](=O)[O-])c1`, inactive: 0.27%; with `CCOC(=O)c1ccc(NP(C)(=O)Oc2ccc(F)cc2)cc1` (centres undefined), inactive: -0.91%.
With `COc1ccc(OP(C)(=O)Nc2ccc(SC(F)(F)F)cc2)cc1` (centres undefined) the figure was inactive: 0.01%; with `Cc1c([N+](=O)[O-])cc([N+](=O)[O-])c(Br)c1[N+](=O)[O-]`, inactive: -0.08%; with `CCN(CC)CCCOC(=O)C(O)(c1ccccc1)C1CCCCC1` (centres undefined), inactive: -0.96%.
On to `CP(=O)(Nc1ccccc1)Oc1ccc(F)cc1` (centres undefined), for which the activation was inactive: -0.7%.
As to `CCCCCOc1ccc(NP(C)(=O)Oc2ccc(Cl)cc2Cl)cc1` (centres undefined), the activation is inactive: 2.16%.
With `O=[N+]([O-])c1cc([N+](=O)[O-])c(OC2CCCCC2O)c([N+](=O)[O-])c1` (centres undefined) the figure was inactive: -0.74%; with `O=[N+]([O-])c1cc([N+](=O)[O-])c(Nc2ccc(Cl)cc2)c([N+](=O)[O-])c1`, inactive: -3.48%.
With `CP(=O)(Nc1ccccc1F)Oc1ccccc1` (centres undefined) the figure was inactive: 1.1%; with `CC(C)c1ccc(OP(C)(=O)Nc2ccc(SC(F)(F)F)cc2)cc1` (centres undefined), inactive: -1.05%.
With `O=C(OC1CN2CCC1CC2)c1ccc([N+](=O)[O-])cc1` (centres undefined) the figure was inactive: -0.53%; with `O=C(OCCN1CCN(CCOCc2ccccc2)CC1)C(O)(c1ccccc1)c1ccccc1`, inactive: -1.56%; with `COc1ccc2c(c1O)-c1c(O)c(OC)cc3c1[C@H](C2)[N+](C)(C)CC3.O=[N+]([O-])c1cc([N+](=O)[O-])c([O-])c([N+](=O)[O-])c1[O-]`, inactive: -1.78%.
As to `COc1ccccc1OP(C)(=O)Nc1cccc(Br)c1` (centres undefined), the activation is inactive: -0.61%.
With `CCOC(=O)c1ccc(NP(C)(=O)Oc2cc(C)cc(C)c2)cc1` (centres undefined) the figure was inactive: 0.49%; with `Cc1cc(C)cc(OP(C)(=O)Nc2ccc(C)cc2C)c1` (centres undefined), inactive: 3.34%.
With `Cc1ccc(C)c(NP(C)(=O)Oc2ccccc2)c1` (centres undefined) the figure was inactive: 1.87%; with `CP(=O)(Nc1cccc(Br)c1)Oc1ccccc1` (centres undefined), inactive: -3.62%; with `Cc1cc(C)cc(OP(C)(=O)Nc2ccccn2)c1` (centres undefined), inactive: -0.5%.
As to `O=C(O)c1cccc(Nc2c([N+](=O)[O-])cc([N+](=O)[O-])cc2[N+](=O)[O-])c1`, the activation is inactive: -3.88%.
`CC1=NCCc2c1[nH]c1ccccc21.O=[N+]([O-])c1cc([N+](=O)[O-])c(O)c([N+](=O)[O-])c1`: the activation was inactive: -2.88%.
For `CCOC(=O)C(CC)C1=NC(C)(C)Cc2ccccc21.O=[N+]([O-])c1cc([N+](=O)[O-])c(O)c([N+](=O)[O-])c1` (centres undefined), the activation was inactive: -1.21%.
As to `O=[N+]([O-])c1cc([N+](=O)[O-])c(Nc2nnnn2CCO)c([N+](=O)[O-])c1`, the activation was inactive: -2.52%.
With `CC1=C2N=C(C=C3N=C(C(C)=C4[N-][C@@](C)([C@@H]5N=C1[C@](C)(CCC(=O)NC[C@@H](C)OP(=O)([O-])O[C@H]1[C@@H](O)[C@@H](n6cnc7cc(C)c(C)cc76)O[C@@H]1CO)[C@H]5CC(N)=O)[C@@](C)(CC(N)=O)[C@@H]4CCC(N)=O)[C@@](C)(CC(N)=O)[C@@H]3CCC(N)=O)C(C)(C)[C@@H]2CCC(N)=O.[C-]#N.[Co+3]` the figure was inactive: -2.72%; with `CN1CCCCC1COC(=O)C1(O)c2ccccc2CCc2ccccc21` (centres undefined), inactive: -1.87%; with `COc1ccccc1OP(C)(=O)Nc1c(C)cccc1C` (centres undefined), inactive: 1.87%.
With `CP(=O)(Nc1ccc(SC(F)(F)F)cc1)Oc1ccccc1` (centres undefined) the figure was inactive: -0.72%.
With `CCCOc1ccc(NP(C)(=O)Oc2ccc(Cl)cc2)cc1` (centres undefined) the figure was inactive: -1.05%; with `O=[N+]([O-])c1cc([N+](=O)[O-])c(-n2nnc3ccccc32)c([N+](=O)[O-])c1`, inactive: -1.66%; with `O=[N+]([O-])c1cc([N+](=O)[O-])c(-c2cnn(-c3ccccc3)c2)c([N+](=O)[O-])c1`, inactive: 0.81%.
As for `Cc1nc2ccc3ccccc3c2s1.O=[N+]([O-])c1cc([N+](=O)[O-])c(O)c([N+](=O)[O-])c1`, the activation is inactive: -2.59%.
With `CP(=O)(Oc1ccccc1)OC(c1ccccc1)C(F)(F)F` (centres undefined) the figure was inactive: -1.1%.
With `CP(=O)(Nc1ccc(SC(F)(F)F)cc1)Oc1ccc(Cl)cc1` (centres undefined) the figure was inactive: 4.74%; with `Cc1ccc(Nc2c([N+](=O)[O-])cc([N+](=O)[O-])cc2[N+](=O)[O-])cc1`, inactive: -1.81%; with `Cc1cccc(C)c1OP(C)(=O)Nc1ccc(SC(F)(F)F)cc1` (centres undefined), inactive: 3.77%.
With `Cc1cc(C)cc(OP(C)(=O)Nc2ccc(SC(F)(F)F)cc2)c1` (centres undefined) the figure was inactive: 6.75%; with `CCc1ccc(OP(C)(=O)N2CCN(c3ccc([N+](=O)[O-])cc3)CC2)cc1` (centres undefined), inactive: -0.05%.
For the molecule `CP(=O)(NC(=O)Nc1ccccc1)Oc1ccccc1` (centres undefined), the activation was inactive: -0.42%.
With `O=[N+]([O-])c1cc([N+](=O)[O-])c(O)c([N+](=O)[O-])c1.c1ccc(Oc2ccncc2)cc1` the figure was inactive: -0.1%; with `CCOC(=O)c1ccc(NP(C)(=O)Oc2ccc(OC)cc2)cc1` (centres undefined), inactive: -0.66%; with `CCOP(C)(=S)SCC(=O)NC(C)C(=O)O` (centres undefined), inactive: 0.23%.
With `CP(=O)(Nc1ccccn1)Oc1ccc(Cl)cc1` (centres undefined) the figure was inactive: -0.68%; with `CP(=S)(Nn1cnnc1)Oc1ccccc1` (centres undefined), inactive: 0.86%; with `CP(=O)(Nc1ccccc1Br)Oc1ccccc1` (centres undefined), inactive: -2.01%.
Regarding `COc1ccccc1OP(C)(=O)Nc1ccccc1` (centres undefined), the activation was inactive: 0.09%.
In the case of `O=[N+]([O-])c1cc([N+](=O)[O-])c(Nc2cccnc2)c([N+](=O)[O-])c1`, the activation is inactive: -1.87%.
With `O=[N+]([O-])c1ccc2c(c1)C=Nc1ccccc1O2` the figure was inactive: -2.2%; with `Cc1cccc(C)c1OP(C)(N)=O` (centres undefined), inactive: -2.06%; with `CC(C)(C)c1ccc(OP(C)(=O)Nc2ccc(SC(F)(F)F)cc2)cc1` (centres undefined), inactive: -0.89%.
With `Cc1ccc(NP(C)(=O)Oc2ccccc2)c(C)c1` (centres undefined) the figure was inactive: -2.72%; with `COc1ccccc1OP(C)(=O)Nc1ccc(C)cc1` (centres undefined), inactive: 2.62%.
With `CCOC(=O)c1ccc(NP(C)(=O)Oc2ccccc2)cc1` (centres undefined) the figure was inactive: -1.08%; with `Cc1cc(C)cc(OP(C)(N)=O)c1` (centres undefined), inactive: 2.57%; with `COc1ccc(OP(C)(=O)Nc2cccc(F)c2)cc1` (centres undefined), inactive: 1.65%.
For the molecule `COc1ccccc1OP(C)(=O)Nc1cc(Cl)ccc1C` (centres undefined), the activation was inactive: -0.78%.
With `CCN(CC)CCCOC(=O)C(O)(c1ccccc1)c1ccccc1` the figure was inactive: -2.43%.
